Reference: patent US6716811B1, “Compounds having affinity for the granulocyte-colony stimulating factor receptor (G-CSFR) and associated uses” (Affymax, Inc., priority 2000, dated 2004)

Molecular target: T1, G-CSFR (Homo sapiens, UniProt Q99062)
T1 construct: incubation with soluble G-CSFR harvest; made in house
T1 sequence (Q99062 25-627): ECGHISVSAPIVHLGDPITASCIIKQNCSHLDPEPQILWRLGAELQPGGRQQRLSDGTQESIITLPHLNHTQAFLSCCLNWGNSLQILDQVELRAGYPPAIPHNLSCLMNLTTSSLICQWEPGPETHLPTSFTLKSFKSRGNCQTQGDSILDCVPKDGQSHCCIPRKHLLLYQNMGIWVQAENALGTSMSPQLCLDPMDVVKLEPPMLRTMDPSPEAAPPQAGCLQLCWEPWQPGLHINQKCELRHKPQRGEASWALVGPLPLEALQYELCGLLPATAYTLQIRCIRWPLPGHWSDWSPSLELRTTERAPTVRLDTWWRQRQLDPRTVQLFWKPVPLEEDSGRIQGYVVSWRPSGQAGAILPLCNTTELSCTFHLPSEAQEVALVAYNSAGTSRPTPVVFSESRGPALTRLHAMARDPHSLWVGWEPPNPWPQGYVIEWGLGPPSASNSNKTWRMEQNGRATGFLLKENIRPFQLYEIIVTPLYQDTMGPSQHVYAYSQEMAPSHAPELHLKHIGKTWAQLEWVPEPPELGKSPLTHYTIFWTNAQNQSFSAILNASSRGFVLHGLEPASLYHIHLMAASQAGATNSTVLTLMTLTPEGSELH
Experiment: G-CSF radioligand binding assay (SPA beads, 125I labeled G-CSF)
Details: reduction by 50% of 125I labeled G-CSF bound to immobilized G-CSFR; overnight at 4° C.
Procedure: Streptavidin-coated scintillation proximity assay (SPA) beads (Amersham) were mixed with biotinylated anti-receptor immobilizing antibody (Ab179) followed by incubation with soluble G-CSFR harvest. Receptor-coated SPA beads were washed twice in PBS/0.1% BSA and distributed to wells of a white polystyrene 96-well microtiter plate (Packard). Serial dilutions of peptide or peptide mimetic were mixed with a constant amount of ^125I labeled G-CSF (10^5 cpm; 1290 Ci/mmol) in PBS/0.1% BSA, added to wells containing receptor-coated SPA beads, and incubated overnight at 4° C. The binding of radiolabeled G-CSF to the receptor-coated SPA bead brings the isotope in close proximity to the scintillant, which allows the emitted radiation to stimulate the scintillant to emit light. […] The amount of ^125I labeled G-CSF that was bound at equilibrium was measured by counting the plate in a TopCount (Wallac) microtiter plate luminometer. […] One can determine the concentration at which the peptide or peptide mimetic will reduce by 50% (IC50) the amount of ^125I labeled G-CSF bound to immobilized G-CSFR.

SMILES: CC(=O)N[C@@H](CO)C(=O)NCC(=O)N[C@@H](Cc1c[nH]c2ccccc12)C(=O)N[C@H](C(=O)N[C@@H](Cc1c[nH]c2ccccc12)C(N)=O)C(C)C [Example 44, Ac-SGWVW-CONH2]
- IC50: > 200 µM
